miR-122 sensor – inhibitors of miR-122 in Huh7 cells | Huh7 miR-122 Renilla luciferase sensor, 48 h; neutral wells = 0, positive control = 100 | activation (reporter increase), % at 12.5 µM | actives 0.3% (n = 340,000) | AID 602342;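 active means mean replicate activation score at least 90 and every replicate individually at or above 90; inconclusive means only one of the two criteria met; inactive means neither criterion met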;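 further: higher luciferase means less miR-122 activity so hits act as miR-122 inhibitors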
CFTR F508del cor – CFTR F508del correction in bronchial cells; AID 720511; activity (quench increase), % at 7.58 µM; actives 0.36% (n = 350,000); CFBE cells, YFP halide quenching; stimulated with forskolin plus potentiator P3; % fluorescence drop versus neutral controls;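 active means mean added fluorescence quench of at least 8% versus neutral control, with both replicates also reaching 8%; inconclusive means only one of the mean or replicate conditions met; inactive means mean below 8% and not both replicates reaching 8%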;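 further: cells transiently co-express mutant CFTR-F508del with the halide-sensitive YFP; corrector assay measuring rescue of mutant channel to the surface after 24 h compound exposure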
LGR2 inh – blocks bursicon-induced cAMP signaling via Drosophila LGR2; HEK293 LGR2, CRE-luciferase, bursicon-stimulated, 4 h; inhibition, % at 9.99 µM; actives 0.35% (n = 380,000); AID 720647;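 active means drop in luminescence signal, shown as inhibition above about 50% in the replicate tests, limit read from the data, passing the limit was not always enough; inconclusive means probably only some replicates passing the limit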;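 further: agonist challenge used bursicon conditioned medium at about half maximal strength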
Yeast UUG start – modulators of yeast start codon fidelity, primary screen, whole organism, S. cerevisiae, single point, plate reader | AID 602363, 2012 | S. cerevisiae UUG-firefly luciferase reporter, luminescence/redox ratio | activity score, % at 18.7 µM | hit rate 0.13% among 350,000;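 active = replicate mean at a twofold rise or more, about +100% in these data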;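 also: firefly luciferase made from a UUG start codon reports start codon fidelity; reporter light over untreated wells divided by growth signal over untreated wells; some hits fall short of that in this replicate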
PglD inh – blocks C. jejuni PglD acetyltransferase activity | purified PglD enzyme, DTNB colorimetric CoA detection | inhibition, % at 12.5 µM | actives 0.098% (n = 360,000); in the data active means inhibition above about 16%, passing the limit was not always enough; inconclusive means no clear call, values can overlap the other calls
EWS-Fli inh – inhibitors of EWS/Fli oncoprotein transcriptional activity; A673 NR0B1-luciferase reporter, viability-normalised; actives 0.67% (n = 350,000); AID 651661; inhibition, % at 12.6 µM;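 active means mean inhibition of at least 50% after viability correction, with every replicate also passing that limit; inconclusive means mean reaches 50% but only one of two replicates passes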;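 further: firefly luciferase signal divided by Alamar Blue viability fluorescence both relative to DMSO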
Numbers without * were called inactive; ? = inconclusive; nt = no result; [ ] = dose if it differs, or a comment. Rows were chosen to be rich in hits. Some 1.3% of all compounds tested hit in one or more screens of this group.

SMILES | miR-122 sensor | CFTR F508del cor | LGR2 inh | Yeast UUG start | PglD inh | EWS-Fli inh
O=C(CCCc1ccccc1)Nc1cccc(C(=O)O)c1 | 3 | -1 | 82* | nt | nt | ?
CN(C(=O)c1ccccc1C(=O)OCC(=O)Nc1ccc(S(N)(=O)=O)cc1)c1ccccc1 | -2 | 8.2* | 11 | 5 | 1 | 3
COCC(=O)N[C@@H]1CC[C@@H](CC(=O)NCc2ccc(Cl)cc2)O[C@H]1CO | nt | 0 | 5 | -1 | -2 | -2
COC(=O)c1c(C)[nH]c(C(=O)/C=C/c2ccc(C)cc2)c1C | nt | -2 | -44 | -37 | 1 | 91*
Cc1noc(C)c1S(=O)(=O)Nc1ccc2c(c1)C(=O)N([C@@H](C)CO)C[C@@H](C)[C@@H](CN(C)CC1CC1)O2 | 3[16.7 µM] | -3 | -17 | 14 | 0 | -10
CC(C)CCn1cnc2c(oc3nc4c(cc32)CCCC4)c1=O | nt | nt | 68* | nt | nt | -8
Cc1[nH]c2ccccc2c1/C=N/Nc1nc2ccccc2[nH]1 | 8 | -15 | 100* | -17 | -5 | -43
Cc1ccccc1/C=N/Nc1nc2ccccc2[nH]1 | nt | 1 | -59 | nt | nt | -123
C=CCNC(=O)[C@@H]1[C@H]2C(=O)O[C@H](c3ccccc3)[C@H](c3ccccc3)N2[C@H](c2ccccc2OCCO)[C@@]12C(=O)N(C(=O)OCCOC)c1ccc(C#CCC(C(=O)OC)C(=O)OC)cc12 | nt | -2 | nt | -14 | 4 | 59*
C=CCNC(=O)[C@H]1[C@@H]2C(=O)O[C@@H](c3ccccc3)[C@@H](c3ccccc3)N2[C@@H](c2ccc(O)cc2)[C@]12C(=O)N(C(=O)OCCOC)c1ccc(C#CCC(C(=O)OC)C(=O)OC)cc12 | nt | -2 | nt | -14 | 0 | -16
Cc1ccc(N(CC(=O)NCc2cccs2)S(=O)(=O)c2cccs2)cc1 | 182* | nt | nt | -17 | 3 | nt
CO[C@@H]1CN(C)C(=O)c2ccc(NC(=O)Nc3ccc4c(c3)OCO4)cc2OC[C@@H](C)NC[C@@H]1C | nt | 4 | -67 | nt | -3 | -81

Given with values under each structure: entries from further up.
The line under a structure holds: miR-122 sensor | CFTR F508del cor | LGR2 inh | Yeast UUG start | PglD inh | EWS-Fli inh
- Cc1[nH]c2ccccc2c1/C=N/Nc1nc2ccccc2[nH]1
    8 | -15 | 100* | -17 | -5 | -43
- Cc1ccccc1/C=N/Nc1nc2ccccc2[nH]1
    nt | 1 | -59 | nt | nt | -123
- C=CCNC(=O)[C@@H]1[C@H]2C(=O)O[C@H](c3ccccc3)[C@H](c3ccccc3)N2[C@H](c2ccccc2OCCO)[C@@]12C(=O)N(C(=O)OCCOC)c1ccc(C#CCC(C(=O)OC)C(=O)OC)cc12
    nt | -2 | nt | -14 | 4 | 59*
- C=CCNC(=O)[C@H]1[C@@H]2C(=O)O[C@@H](c3ccccc3)[C@@H](c3ccccc3)N2[C@@H](c2ccc(O)cc2)[C@]12C(=O)N(C(=O)OCCOC)c1ccc(C#CCC(C(=O)OC)C(=O)OC)cc12
    nt | -2 | nt | -14 | 0 | -16

Later entries.
SMILES | miR-122 sensor | CFTR F508del cor | LGR2 inh | Yeast UUG start | PglD inh | EWS-Fli inh
COc1cc(NC(=O)C2CCCN2C(=O)OCc2ccccc2)cc(OC)c1 (configuration not stated) | -2 | nt | nt | -2 | 8 | nt
CCOC(=O)C(C)(C)NS(=O)(=O)c1ccc(Cl)c([N+](=O)[O-])c1 | -11 | nt | 0 | 1 | 4 | 12
CCOC(=O)C(C)(C)N(Cc1ccc(C)cc1)S(=O)(=O)c1ccc(Cl)c([N+](=O)[O-])c1 | nt | nt | nt | nt | nt | 73*
Cc1ccc(C(=O)CC(=O)c2ccccc2C)c(O)c1 | 8 | -7 | -10 | -8 | 0 | 6
C=C(CN(C)C)C(=O)c1ccc(C)cc1C | -4 | 0 | 6 | nt | nt | 73*
COc1cc(C(=O)Nc2ccc3c(c2)ncn3C)cc(OC)c1OC | 14 | 12* | 3 | -18 | 3 | 35
Cc1cccc(-c2ccc([C@H]3[C@@H](CO)N4CCCCN(Cc5cccnc5)C[C@@H]34)cc2)c1 | 4[16.7 µM] | 5 | 12 | -6 | 2 | nt
[O-]/C(=C(\C(=S)NCc1ccccc1)[n+]1ccccc1)c1ccc(Cl)s1 | 173* | 4 | 38 | -25 | -1 | -9
CCCCCc1cc(=O)oc2c(C(CCN3CCCCC3)c3ccc4c(c3)OCO4)c(OC)cc(OC)c12 (configuration not stated) | 35 | 1 | 40 | 3 | 3 | 21
CCCCCc1cc(=O)oc2c(C(CCN(CC)CC)c3cc(OC)c(OC)c(OC)c3)c(OC)cc(OC)c12 (configuration not stated) | -25 | -2 | nt | 14 | -10 | 51*
C[C@@H]1CN([C@@H](C)CO)C(=O)c2cc(NS(=O)(=O)c3cn(C)cn3)ccc2O[C@@H](C)CCCCO[C@H]1CN(C)C(=O)Nc1cccc2ccccc12 | 2[16.7 µM] | 0 | 7 | 1 | -2 | -15
COC(=O)c1cc2c(=O)c3ccccc3oc2nc1/C=C/N(C)C | 7 | 28* | -8 | 0 | -8 | -1

Looked up above:
CCOC(=O)C(C)(C)NS(=O)(=O)c1ccc(Cl)c([N+](=O)[O-])c1 in Yeast UUG start shows 1
COC(=O)c1cc2c(=O)c3ccccc3oc2nc1/C=C/N(C)C in CFTR F508del cor shows 28*

Remaining list, next part:
SMILES | miR-122 sensor | CFTR F508del cor | LGR2 inh | Yeast UUG start | PglD inh | EWS-Fli inh
COC(=O)c1cc2c(=O)c3ccccc3oc2nc1C | 0 | -2 | -22 | -17 | -5 | -106
C[C@H](NC(=O)C[C@@H]1C[C@H]2c3cc(NC(=O)Nc4ccc(C(F)(F)F)cc4)ccc3O[C@H]2[C@@H](CO)O1)c1ccccc1 | -7[16.7 µM] | -1 | -1 | nt | -1 | 3
CN[C@H]1CCc2cc(OC)c(OC)c(OC)c2-c2ccc(OC)c(=O)cc21 | 17 | -1 | 12 | -15 | -4 | 57*
COc1cc2c(c(OC)c1OC)-c1ccc(NC(=O)c3ccccc3)c(=O)cc1[C@@H](NC(C)=O)CC2 | nt | 0 | 13 | nt | nt | 54*
CCCCOC(=O)NC1CCc2cc(OC)c(OC)c(OC)c2-c2ccc(SC)c(=O)cc21 (configuration not stated) | ? | 0 | -2 | nt | nt | 55*
CCOC(=O)NC1CCc2cc(OC)c(OC)c(OC)c2-c2ccc(SC)c(=O)cc21 (configuration not stated) | nt | 3 | -17 | nt | nt | 35
CCCSc1sc(C(=O)OC)c(-c2cccs2)c1C#N | nt | 1 | -8 | nt | nt | 14
CCn1c(=O)c2c(nc(SCC(=O)NCC3CCCO3)n2C)n(C)c1=O (configuration not stated) | -5 | 1 | 1 | -5 | 0 | 5
Cc1ccc2cc(CN(CC3CCCO3)C(=S)Nc3ccccc3)c(=O)[nH]c2c1C (configuration not stated) | nt | 12* | 21 | nt | nt | 3
COc1ccc(-c2csc(NC(=O)c3ccc(OCC(=O)N4CCOCC4)c(OC)c3)n2)cc1 | -3 | -1 | 92* | -7 | -1 | 0
COc1cc(C(=O)Nc2nc(-c3ccc(C)cc3)cs2)ccc1OCC(=O)N1CCOCC1 | 3 | nt | 2 | -6 | 2 | nt
COC(=O)C[N+](C)(C)C/C=C\c1ccccc1 | nt | -3 | nt | nt | nt | -7
CN(Cc1cnc2nc(N)nc(N)c2n1)c1ccc(C(=O)NC(CCC(=O)O)C(=O)O)c2ccccc12 (configuration not stated) | -2 | 11* | 12 | nt | nt | 44
Cc1ccc(S(=O)(=O)Nc2cccc3c2O[C@H](CN(C)Cc2ccc(C(=O)Nc4ccccc4N)cc2)[C@H](C)CN([C@H](C)CO)C3=O)cc1 | 189*[16.7 µM] | -3 | -17 | 7 | 11 | 39
C[C@@H]1CN([C@@H](C)CO)C(=O)c2cccc(NC(=O)C3CCCCC3)c2O[C@@H]1CN(C)Cc1ccc(C(=O)Nc2ccccc2N)cc1 | 185*[16.7 µM] | 6 | 10 | -6 | 2 | ?
C[C@@H]1CN([C@@H](C)CO)C(=O)c2cccc(NC(=O)Nc3ccc4c(c3)OCO4)c2O[C@H]1CN(C)S(=O)(=O)c1ccccc1 | -7[16.7 µM] | 9.0* | -12 | 8 | 4 | -1
C[C@@H]1CN([C@H](C)CO)C(=O)c2cccc(NC(=O)Nc3ccccc3)c2O[C@H]1CN(C)Cc1ccc(C(=O)Nc2ccccc2N)cc1 | 18[16.7 µM] | -3 | 7 | 1 | 1 | 47

Screening data: PubChem, Broad Institute
